miR-21 FLuc: miR-21 reporter, rising signal. HeLa miR-21 FLuc reporter, luciferase, 48 h. Potency, µM (highest dose often 38.3 µM), for the others: at the highest dose reporter change, positive = more light. 340,000 tested, under 10 active. AID 2288; active = well fitted rising curve with a large enough effect; inconclusive = small, poorly fitted or top-dose-only effect; inactive = no such curve, though single readings can be large or run the other way;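 further: % of control where 0% means no effect; miR-21 action dims this reporter so a rising signal means less miR-21 action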
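Using DMEM plus 10% FBS, HeLa miR-21-FLuc cells are incubated with test compounds (final up to about 40uM) for 48 hours; firefly luciferase signal is then imaged following reagent-mediated lysis.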
uPA generation: cell surface uPA generation inhibition; cell surface uPA generation assay, qHTS; 330,000 compounds, 0.31% hits; AID 540303; Potency, µM (series often up to 38.3 µM), without a hit: at the highest dose activity change, negative = inhibition, usual class: inhibitors; active means well fitted inhibition curve with a large enough effect; inconclusive means small, poorly fitted or top-dose-only effect; inactive means no such curve, though single readings can be large or run the other way; tested in mouse RAW 264.7 cells; further: potency means the concentration at half of the fitted maximal effect; on the % scale 0 is the no-effect control and ±100 the full control effect; nearly all actives have a fitted effect of over 55% in size
TDP1 inh: TDP1 (human) enzyme inhibition. 350,000 compounds, 0.28% hits. Potency, µM (doses to about 130 µM), for inactives: top-dose activity change, negative = inhibition, usual class: inhibitors. recombinant TDP1, AlphaScreen DNA substrate cleavage. Q9NUW8; further: potency means the concentration at half of the fitted maximal effect; on the % scale 0 is the no-effect control and ±100 the full control effect; nearly all actives have a fitted effect of over 40% in size
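Here, a 5' biotin and 3' phosphotyrosine-FITC DNA oligonucleotide reports Tdp1 activity: intact substrate bridges AlphaScreen beads, while cleavage leaves a 3' phosphate and drops signal. All incubations at room temperature.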
TDP1 cell noCPT: qHTS for Inhibitors of human tyrosyl-DNA phosphodiesterase 1 (TDP1): qHTS in cells in absence of CPT; DT40 Tdp1-/- hTDP1 cells, no CPT, ATP luminescence, 48 h; Potency, µM (series often up to 46.2 µM), without a hit: top-dose activity change, negative = growth inhibition, hits mostly inhibitors; 420,000 compounds, 15% hits; AID 686978, 2013; further: potency means the concentration at half of the fitted maximal effect; on the % scale 0 is the no-effect control and ±100 the full control effect; nearly all actives have a fitted effect of over 55% in size
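Chicken DT40 Tdp1-/- cells stably complemented with human TDP1 were seeded at 400 cells/well with DMSO in place of 20 nM camptothecin. After compound pinning, cells grew at least 48 hr at 37 °C; viability read by CellTiter-Glo luminescence.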
DT40 TDP1 CPT: DT40-hTDP1 cell growth loss with CPT. chicken DT40 Tdp1-/-;hTDP1 cells + 20 nM CPT, ATP luminescence, 48 h. Potency, µM (highest dose often 46.2 µM), without a hit: at the top dose activity change, negative = growth inhibition, most hits filed as inhibitors. 420,000 compounds, 12% hits. AID 686979; further: potency means the concentration at half of the fitted maximal effect; on the % scale 0 is the no-effect control and ±100 the full control effect; nearly all actives have a fitted effect of over 55% in size
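Chicken DT40 Tdp1-/- cells stably complemented with human TDP1 were seeded at 400 cells/well in medium containing 20 nM camptothecin, exposed to pin-transferred compounds, and grown at 37 °C for at least 48 hr. Viability was read as ATP luminescence.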
* marks the source's active call; other numbers are inactive results; ? = inconclusive; · = not tested or not shown. In the library only some 16% were active in any assay of this set; here they are far more common. Unless noted, the call rests on the fitted dose curve; in most records, active means well fitted curve in the direction sought with a large enough effect; inconclusive means small, poorly fitted or top-dose-only effect, or another doubt; inactive means no such curve, though single readings can be large; an effect the other way counts as inactive or inconclusive.

SMILES | miR-21 FLuc | uPA generation | TDP1 inh | TDP1 cell noCPT | DT40 TDP1 CPT
Cc1ccccc1Nc1c(-c2ccccn2)nc2ccccn12 | ? | ? | 8% | 8.2µM* | 9.2µM*
COc1ccc(-c2cc3nc(-c4ccccc4)cc(N4CCC5(CC4)OCCO5)n3n2)cc1 | 0% | 16% | · | ? | 26µM*
COc1cccc(N2CCN(c3c4c(nc5ncnn35)CCC4)CC2)c1 | 12% | · | 5% | 16µM* | ?
COc1ccc(-c2cc3nc4c(c(N5CCC6(CC5)OCCO6)n3n2)CCC4)cc1 | -19% | 8% | 5% | 26µM* | 13µM*
COc1cccc(-c2cc3nc4c(c(N5CCC6(CC5)OCCO6)n3n2)CCC4)c1 | -23% | 7% | -2% | 26µM* | 18µM*
Cc1cccc(-c2cc3nc4c(c(N5CCC6(CC5)OCCO6)n3n2)CCCC4)c1 | · | 4% | · | -26% | -30%
Cc1ccc(-c2cc3nc(-c4ccccc4)cc(N4CCOCC4)n3n2)cc1 | -29% | 16% | 0% | ? | -29%
CCOc1cccc(C(=O)NC(c2ccccc2)C(C)C)c1 (configuration not stated) | -4% | 4% | -5% | -3% | -2%
CCOC(=O)C1CCCN(S(=O)(=O)c2cccs2)C1 (configuration not stated) | -8% | -16% | 1% | -7% | -27%
COc1ccc(S(=O)(=O)N2CCCCCC2)cc1C(=O)N(C)CCOc1ccc(Cl)cc1 | · | -12% | 4% | 21µM* | 21µM*
COc1ccc(CCN(C)C(=O)c2cc(S(=O)(=O)N3CCCCC3)ccc2Cl)cc1OC | · | -8% | 5% | 23µM* | ?
CCN1CCN(S(=O)(=O)c2ccc(Cl)c(C(=O)N(C)Cc3ccc(Cl)cc3Cl)c2)CC1 | 12% | -5% | 4% | 23µM* | ?
CN(CCOc1ccccc1)C(=O)c1cc(S(=O)(=O)N2CCOCC2)ccc1Cl | · | 3% | · | ? | -18%
CCN1CCN(S(=O)(=O)c2ccc(Cl)c(C(=O)N(C)CCOc3ccc(Cl)cc3)c2)CC1 | · | -30% | · | 15µM* | 18µM*
COc1ccc(CCN(C)C(=O)c2cc(S(=O)(=O)N3CCCCCC3)ccc2OC)cc1OC | · | -15% | 2% | ? | ?
CCCCn1c(SCC(=O)N2CCN(c3ccccc3)CC2)nc2ccsc2c1=O | 14% | -22% | 7% | ? | 12µM*
CCCCn1c(SCC(=O)N2CCOCC2)nc2ccccc2c1=O | 15% | 2% | -5% | -10% | -21%
CCCCn1c(SCC(=O)N2CCC(C)CC2)nc2ccsc2c1=O | 18% | · | 6% | 15µM* | ?
O=C(CSc1nc2ccsc2c(=O)n1Cc1ccccc1)NCC1CCCO1 (configuration not stated) | -4% | -2% | 2% | -3% | 5%
CCC1CCCCN1C(=O)CSc1nc2ccsc2c(=O)n1Cc1ccccc1 (configuration not stated) | 5% | 0% | 6% | 9.2µM* | 21µM*
CCCCn1c(SCC(=O)Nc2ccccc2C(F)(F)F)nc2ccsc2c1=O | -6% | · | -3% | -24% | -17%
Cc1ccc(Cn2ccc(NC(=O)c3cc(-c4ccc(Cl)c(Cl)c4)on3)n2)cc1 | 1% | · | -1% | ? | ?
CCCC(=O)NCCCc1nc2ccccc2n1CC | 0% | 7% | -1% | -18% | ?
O=C(Nc1ccc([N+](=O)[O-])cc1)Nc1nc(-c2ccc(Cl)s2)cs1 | ? | -9% | 3% | 3.7µM* | 4.6µM*
O=C(Nc1nc(-c2ccc(Cl)s2)cs1)c1ccco1 | -32% | 5% | 6% | ? | ?
O=C(O)C1CCCCC1C(=O)Nc1nc(-c2ccc(Cl)s2)cs1 (configuration not stated) | -10% | -5% | 2% | -5% | -8%
CCCC(=O)Nc1nc(-c2ccc(Cl)s2)cs1 | 2% | -26% | -1% | 5.8µM* | 16µM*
O=C(Nc1nc(-c2ccc(Cl)s2)cs1)c1cccs1 | -18% | -2% | -2% | 18µM* | 23µM*
O=C(Nc1ccncc1)C1CC1c1ccccc1 (configuration not stated) | 14% | -2% | 2% | ? | 16µM*
O=C(CSc1nnc(-c2ccc(Cl)cc2)o1)c1ccc([N+](=O)[O-])cc1 | 5% | · | 7% | · | ·
O=C(/C=C/c1ccccc1[N+](=O)[O-])NCCCn1ccnc1 | -1% | -5% | 4% | 0% | 1%
CCCCCCCCC(=O)NC(NC(=S)N1CCOCC1)C(Cl)(Cl)Cl (configuration not stated) | 23% | 11% | 2% | 15µM* | ?
Cc1cc(N2CCN(c3ccccc3)CC2)nc(-c2ccccc2)n1 | -9% | 10% | 4% | 10µM* | 23µM*
Cc1cc(N2CCN(C(=O)c3ccco3)CC2)nc(-c2ccccc2)n1 | 15% | 5% | 2% | 18µM* | ?
COCc1cc(N2CCCCC2)nc(-c2ccccc2)n1 | 4% | 1% | -3% | 18µM* | 10µM*
O=C(CSC(=S)N1CCCC1)Nc1ncc(Cl)cc1Cl | · | -7% | 0% | -23% | -8%
O=C(CSc1ccc2ccccc2c1)Nc1ccncc1 | 4% | 0% | 4% | 15µM* | ?
O=C(COc1ccc2ccccc2c1)NCCn1ccc2ccccc21 | -13% | 8% | 2% | 21µM* | ?
O=C(COc1ccccc1)Nc1ccncc1 | -6% | 1% | -1% | -9% | 11%
CC(C)(C)CC(C)(C)NC(=O)CSCC(=O)Nc1ccc2ccccc2c1 | 0% | 6% | 6% | ? | 18µM*
O=C(COc1ccc2ccccc2c1)Nc1ccncc1 | ? | 0% | 1% | 16µM* | ?
CCCOc1ccc(-c2nn(-c3ccccc3)cc2C2NC(=O)NC(C)=C2C(=O)OC)cc1C (configuration not stated) | -10% | · | · | ? | ?
CCCOc1ccc(-c2nn(-c3ccccc3)cc2/C=C2\SC(N)=NC2=O)cc1C | 1% | 5% | -3% | ? | 16µM*
CCS(=O)(=O)NCCc1csc2nc(-c3ccc(OC)cc3)nn12 | -14% | · | 5% | ? | ?
CCc1ccc(S(=O)(=O)NCCc2csc3nc(-c4ccccc4)nn23)s1 | ? | · | 3% | 23µM* | 21µM*
COc1ccc(-c2nc3scc(CCNS(=O)(=O)c4cccs4)n3n2)cc1 | 17% | · | 5% | 18µM* | 21µM*
O=S(=O)(NCCc1csc2nc(-c3ccccc3)nn12)c1cccs1 | 14% | · | 5% | 16µM* | ?
O=C(NCCc1nnc2ccc(SCC(=O)N3CCCC3)nn12)c1ccccc1 | -2% | 1% | 4% | 13% | 9%

Compound activity from PubChem.
